Data on three compounds can be found in patent US7803803B2, “Tetrahydrofuro[3,2-B] pyrrol-3-ones as cathepsin K inhibitors” (Amura Therapeutics Limited, priority 2007, dated 2010).

Chains of the proteins cited; added tags and fusions are not shown. Residues count along the entry.
UniProt P43235, 115-329 limits assumed: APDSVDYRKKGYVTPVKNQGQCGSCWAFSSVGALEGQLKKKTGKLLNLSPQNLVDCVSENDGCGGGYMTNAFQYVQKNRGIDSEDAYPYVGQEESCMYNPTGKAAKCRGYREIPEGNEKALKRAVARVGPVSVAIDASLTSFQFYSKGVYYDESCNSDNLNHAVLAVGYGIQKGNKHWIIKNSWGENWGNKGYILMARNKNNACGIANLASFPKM

As a reminder, the Ki is a dissociation constant, usually derived from enzyme kinetics or from competition with a known ligand.

The target of the assay is Human recombinant cathepsin K (Homo sapiens, UniProt P43235). Put plainly: In vitro cathepsin Ki inhibition measurements. The format is biochemical. To be noted: read-out: Ki (nM) vs Human Cathepsin K, prior art examples of WO-A-02057270.
For `COc1ccc(C[C@H](NC(=O)c2ccc(C(C)(C)C)cc2)C(=O)N2CC[C@H]3OCC(=O)[C@H]32)cc1`, the Ki is more than 50000 nM. Then `COc1ccc(C(=O)N[C@@H](CC(C)C)C(=O)N2CC[C@H]3OCC(=O)[C@H]32)cc1`, with more than 150 nM; and `CC(C)(C)c1ccc(C(=O)N[C@@H](Cc2ccc(Br)cc2)C(=O)N2CC[C@H]3OCC(=O)[C@H]32)cc1`, with more than 50000 nM.
